Only a part is listed here, and it is no random draw. Some results for these compounds are left out of this collection, so the calls shown say nothing about other tests. Calls of active or inactive are those of the source.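 Rule for the calls: active = percent inhibition above a cutoff equal to the mean of all tested compounds plus 3 SD (cut at about 15% in these data); inactive = the rest.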
target: Protein-arginine deiminase type-4 (Homo sapiens) (UniProt Q9UM07); assay: protein arginine deiminase 4 enzyme blockade – biochemical, fluorescence polarization, 1536-well format, primary screen (AID 485272); details: recombinant PAD4, RCA probe fluorescence polarization; at 6.36 µM; stronger effect = higher value;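 note: 0% = PAD4 with RCA probe and DMSO and 100% = probe without PAD4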

By UniProt entry, the sequences of proteins in these tests, tags left out.
UniProt Q9UM07, whole entry: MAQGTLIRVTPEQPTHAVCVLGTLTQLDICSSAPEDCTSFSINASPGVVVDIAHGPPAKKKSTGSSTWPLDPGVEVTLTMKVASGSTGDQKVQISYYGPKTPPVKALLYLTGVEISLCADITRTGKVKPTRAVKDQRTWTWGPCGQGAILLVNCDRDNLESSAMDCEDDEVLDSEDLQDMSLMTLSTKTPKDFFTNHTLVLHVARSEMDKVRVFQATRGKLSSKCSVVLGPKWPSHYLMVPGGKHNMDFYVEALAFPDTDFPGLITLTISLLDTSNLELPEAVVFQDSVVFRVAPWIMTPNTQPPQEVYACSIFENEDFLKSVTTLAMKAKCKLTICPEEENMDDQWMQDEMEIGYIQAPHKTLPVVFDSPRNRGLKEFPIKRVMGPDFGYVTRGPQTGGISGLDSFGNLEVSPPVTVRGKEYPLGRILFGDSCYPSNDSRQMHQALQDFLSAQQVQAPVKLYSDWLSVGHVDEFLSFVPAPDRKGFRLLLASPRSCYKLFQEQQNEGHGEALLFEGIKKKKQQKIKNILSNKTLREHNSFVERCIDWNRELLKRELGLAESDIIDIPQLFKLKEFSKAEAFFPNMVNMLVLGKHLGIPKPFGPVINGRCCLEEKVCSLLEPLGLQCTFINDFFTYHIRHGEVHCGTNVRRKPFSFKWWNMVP

Row | SMILES | inhibition
1 | COc1cccc(C(=O)NCC2(N3CCCCC3)CCCCC2)c1 | inactive: 2.27%
2 | COc1ccc(Cl)cc1C(=O)NCC1(N(C)C)CCCCC1 | inactive: -2.58%
3 | O=C(NCC1(N2CCCCC2)CCCCC1)c1cccc(Cl)c1 | inactive: -3.96%
4 | CN(C)C1(CNC(=O)c2ccc(Br)cc2)CCCCC1 | inactive: -7.62%
5 | COc1cc(C(=O)NCC2(N(C)C)CCCCC2)c([N+](=O)[O-])cc1OC | inactive: 1.36%
6 | COc1ccc(Br)c(C(=O)NCC2(N3CCCCC3)CCCCC2)c1 | inactive: -2.5%
7 | CN(C)c1cccc(C(=O)NCC2(N(C)C)CCCCC2)c1 | inactive: 0.6%
8 | CC(C)Oc1ccc(C(=O)NCC2(N(C)C)CCCCC2)cc1 | inactive: -0.59%
9 | O=C(OC1CN2CCC1CC2)C(CO)(c1ccccc1)c1ccccc1 (centres undefined) | inactive: -7.35%
10 | CC(C)N1C(=O)CC2(CCN(CCOC(=O)C(O)(c3ccccc3)c3ccccc3)CC2)C1=O | inactive: 0.15%
11 | CCN(CC)CC(C)C(C)OC(=O)C(O)(c1ccccc1)c1ccccc1 (centres undefined) | inactive: -0.59%
12 | COc1cc(SC)ccc1C(=O)NCC1(N(C)C)CCCCC1 | inactive: -0.14%
13 | Cc1ccc(C(=O)NCC2(N3CCCCC3)CCCCC2)cc1 | inactive: -8.53%
14 | O=C(NCC1(N2CCCCC2)CCCCC1)c1cc([N+](=O)[O-])ccc1Cl | inactive: 0.91%
15 | CN1[C@@H]2CC[C@H]1CC(OC(=O)C(O)(c1ccccc1)c1ccccc1)C2 (some centres undefined) | inactive: -3.82%
16 | C=CCN1CCN(CCOC(=O)C(O)(c2ccccc2)c2ccccc2)CC1 | inactive: -6.81%
17 | O=C(NCC1(N2CCCCC2)CCCCC1)c1cc(F)c(F)cc1Cl | inactive: -2.75%
18 | Cc1cc(C(=O)NCC2(N3CCCCC3)CCCCC2)ccc1[N+](=O)[O-] | inactive: 1.12%
19 | CCN1CCCC(OC(=O)C2(O)c3ccccc3C=Cc3ccccc32)C1 (centres undefined) | inactive: 4.1%
20 | O=C(NCC1(N2CCCCC2)CCCCC1)c1cccc(Br)c1 | inactive: 0.34%
21 | COc1ccc(C(=O)NCC2(N(C)C)CCCCC2)cc1 | inactive: -4.59%
22 | Cc1ccccc1C(=O)NCC1(N2CCCCC2)CCCCC1 | inactive: -9.84%
23 | CN(C)C1CCCC1OC(=O)C(O)(c1ccccc1)c1ccccc1 (centres undefined) | inactive: 1.1%
24 | CN(C)c1ccc(C(=O)NCC2(N(C)C)CCCCC2)cc1 | inactive: -0.58%
